Legend:
HEK-293T = assay: Multiplex assay against HEK293T; format: toxicity, cell-based; conditions: human, 12 h, 1 µM, compound concentration 1 uM, replicate 2
Fibroblast = assay: Multiplex assay against human fibroblast; format: toxicity, cell-based; conditions: 10 µM, compound concentration 10 uM, replicate 1

CNC[C@H](O)c1ccc(O)c(O)c1 [EPINEPHRINE]
Total Cell Count (HEK-293T): 371 | Total Cell Count (Fibroblast; 0 h): 165 | Total Cell Count (Fibroblast; 12 h): 179
